Experimental data reported in PMC7048932, “Examining sterically demanding lysine analogs for histone lysine methyltransferase catalysis” (Scientific Reports, 2020).

Chains of the proteins cited; added tags and fusions are not shown. Lines headed by an entry give the natural chain unless they say otherwise; changes in a name come on top.
UniProt Q9NQR1: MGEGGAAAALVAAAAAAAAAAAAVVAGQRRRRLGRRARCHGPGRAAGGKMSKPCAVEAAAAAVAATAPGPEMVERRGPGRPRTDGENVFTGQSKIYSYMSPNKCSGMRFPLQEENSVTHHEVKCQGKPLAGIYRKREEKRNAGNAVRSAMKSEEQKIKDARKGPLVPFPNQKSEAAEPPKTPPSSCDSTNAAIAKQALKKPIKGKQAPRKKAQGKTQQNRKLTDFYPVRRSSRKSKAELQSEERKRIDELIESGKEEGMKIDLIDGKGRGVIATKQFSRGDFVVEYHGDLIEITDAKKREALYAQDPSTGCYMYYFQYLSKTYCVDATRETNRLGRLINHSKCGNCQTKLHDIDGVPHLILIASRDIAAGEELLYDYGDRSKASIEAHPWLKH

Target: SETD8 (human) (UniProt Q9NQR1)

H4K20 histone peptide
degree of monomethylation by SETD8 with SAM in competition with an equimolar amount of H4KCP20 (MALDI-TOF MS): 70%
